Measured affinities in a library of Ab-14 heavy chain variants

Target: peptide PDVDLGDISGINAS, taken from heptad repeat 2 (HR2) of SARS-CoV-2 spike.

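The parent was found by panning a naive human phage display library on the peptide. AAYL49 was designed without a model: most single CDR substitutions and a random sample of double and triple ones. Affinity was read by AlphaSeq, a pooled yeast mating assay with surface-displayed partners. The frequency of each diploid, read from paired DNA barcodes, reflects how well the two displayed proteins bind. A regression on co-assayed BCL2-family reference pairs converts the normalised counts of each replicate to an apparent Kd. There are three technical replicates.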

The variants keep the light chain, the linker and the frameworks of Ab-14 (scFv order VH, a 15-residue (Gly4Ser)3 linker, VL).
VH: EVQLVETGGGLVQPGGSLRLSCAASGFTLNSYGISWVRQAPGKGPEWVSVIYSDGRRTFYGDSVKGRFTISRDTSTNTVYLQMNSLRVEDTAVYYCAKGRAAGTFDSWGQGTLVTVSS
VL: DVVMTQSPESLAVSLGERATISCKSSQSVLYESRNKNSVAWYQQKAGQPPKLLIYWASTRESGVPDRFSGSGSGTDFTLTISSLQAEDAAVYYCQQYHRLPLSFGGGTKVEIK

Variants are written as CDR1, CDR2 and CDR3 of the heavy chain (limits as in the source). Parent: GFTLNSYGIS, VIYSDGRRTFYGDSVK, GRAAGTFDS.
The read-out is the apparent dissociation constant on a log10 scale (nM): the lower, the stronger.
Averages over replicates are reported, and they cover detected replicates only.
An entry "no signal" has no value in the source: the pair was not observed among the diploids in any replicate. This suggests poor binding but is not conclusive.
Empty control strains, which show no peptide, gave a signal in 15% of pairings with library AAYL49; the median was 4.06 and 95% of these signals were weaker than 2.83. No background was subtracted. Also given: how often the same scFv was detected with the empty control strains.
In this assay the parent's reference entry averaged 0.65; its copy inside this library read 4.11 (one replicate of three).

mean, log10 nM | replicates with signal | empty controls | CDR-H1 | CDR-H2 | CDR-H3
2.82 | 1 of 3 | 1 of 9 | GFTLNSIGIS | VIYSDGRRTFYTDSVK | SRAAGTFDS
no signal | 0 of 3 | 1 of 9 | GFTLNSMGIS | VIESDGRRTFYGDSVK | GRAAGTPDS
no signal | 0 of 3 | 3 of 9 | GFTLNSYGIS | VIYSDGRGTFFGDSVK | GRAAGTFDS
no signal | 0 of 3 | 0 of 9 | GFTLNSYWIS | VIYSDGRRTFYGDSRK | GRAADTFDS
4.08 | 1 of 3 | 2 of 9 | GFTLNSYGIS | VIDSDGRRKFYGDSVK | GRAAHTFDS
3.87 | 1 of 3 | 3 of 9 | GTTLWSYGIS | VIYSDGRRTFYGDSVK | IRAAGTFDS
no signal | 0 of 3 | 0 of 9 | GFTLNSYGIS | VIYSDGNRTFYGDSVK | GRDAWTFDS
no signal | 0 of 3 | 0 of 9 | GFTLNSYGIS | VIYTIIRRTFYGDSVK | GRAAGTFDS
no signal | 0 of 3 | 0 of 9 | GFTLNSYGIG | VIYSDGRRTFYGMSVK | GRAAGEFDS
no signal | 0 of 3 | 0 of 9 | GFTLNSYGIS | VIYSDGRRTFYGDFVK | GRAAGTNDH
no signal | 0 of 3 | 0 of 9 | GFTLNSYGIS | VCYSDGRRTSTGDSVK | GRAAGTFDS
no signal | 0 of 3 | 4 of 9 | GFTLNSYCIS | VIYSDGRRTFYGDSVK | WRAAGTFDS
2.09 | 3 of 3 | 0 of 9 | SFTLNSYGIS | VIYSDGRRTFYGDSVK | GWAAGTFDP
no signal | 0 of 3 | 2 of 9 | TFTLNSYMIS | VIYSDGRRTFYGDSVK | GRAAPTFDS
no signal | 0 of 3 | 0 of 9 | GFVLNPPGIS | VIYSDGRRTFYGDSVK | GRAAGTFDS
2.48 | 1 of 3 | 1 of 9 | GFFLNSYGIS | VIYSDGRRTFYGDSVK | GRADETFDS
no signal | 0 of 3 | 0 of 9 | GFTLNSYGIS | VIMSDGWRYFYGDSVK | GRAAGTFDS
4.82 | 2 of 3 | 2 of 9 | GFTLNSYGIS | VNYSDGRRTFYGDSVK | GRAASTFDS
4.59 | 1 of 3 | 2 of 9 | GFTLNSYGIS | VIYSDSRRTFYGDIVK | SRAAGTFDS
no signal | 0 of 3 | 0 of 9 | GFTLNGYGPS | MIYSDGRRTFYGDSVK | GRAAGTFDS
1.42 | 3 of 3 | 2 of 9 | DFTLNNYGIS | VIYSDGRRTFYGDSVN | GRAAGTFDS
no signal | 0 of 3 | 0 of 9 | GFTENSYGIS | WIYSDGRRTFYGDSVK | GRAAHTFDS
4.27 | 2 of 3 | 3 of 9 | YFTLNAYGIS | VIYSDGRRTFYGDSVK | GRAAGTFDP
no signal | 0 of 3 | 1 of 9 | GFTLNSYGIS | VIYNDGRIGFYGDSVK | GRAAGTFDS
no signal | 0 of 3 | 0 of 9 | GFTLNSYVVS | VIYSDGRRTFYGWSVK | GRAAGTFDS
2.82 | 1 of 3 | 1 of 9 | GFDLNSYQIS | VIYSDGRRYFYGDSVK | GRAAGTFDS
1.81 | 3 of 3 | 2 of 9 | GFTANSYGIS | VIYSDGRRTFYGDSVK | GRAAGTFDL
no signal | 0 of 3 | 2 of 9 | GFTLGSYGIS | VIMSDGRRTFYGDSVK | GRAAGTFDS
no signal | 0 of 3 | 2 of 9 | GFTLNSPGIS | VIYSDGRRTFYMDSVK | GRAAGTFDQ
no signal | 0 of 3 | 0 of 9 | GFTLNSYGIS | VIYQDGRRTFYGDSVK | GGAAGTFDS
no signal | 0 of 3 | 0 of 9 | HFTLNSYGIS | VIYSTGRQTFYGDSVK | GRAAGTFDS
no signal | 0 of 3 | 1 of 9 | GFTLNSYGIS | VIYMDGRRTFYGDDVK | GRAAGTFDS
0.57 | 3 of 3 | 2 of 9 | GFTLLSYGIS | VIYSDGRRTFYSDSVK | GKAAGTFDS
no signal | 0 of 3 | 0 of 9 | GFTLNSYGIN | VIYSDGRRWFYGDSVK | GRAIGTFDS
3.13 | 1 of 3 | 6 of 9 | GFTLNSYVIS | VIYSDGRRTFYGDAVK | GRAVGTFDS
3.69 | 1 of 3 | 0 of 9 | GFTLNSYGIS | VIYSDGRRTFYGDSVL | GQAAGTFDW
no signal | 0 of 3 | 0 of 9 | GLTLNSYGSS | VIYSDGRRTRYGDSVK | GRAAGTFDS
no signal | 0 of 3 | 2 of 9 | GFTLNSYGIS | VIYSDGRRTFYGDSVK | GPAAGTMDS
no signal | 0 of 3 | 1 of 9 | GFTLNFYGIS | VIYSDRRRTFYGDSVC | GRAAGTFDS
2.99 | 1 of 3 | 0 of 9 | GFTLNSYGIS | VIYSDGHRTFYGLSVK | GRAAMTFDS
3.06 | 3 of 3 | 0 of 9 | RFTLNMYGIS | VIYSDGRRTFYGDSVK | GRAAGTFDS
4.30 | 3 of 3 | 3 of 9 | EYTLNSYGIS | VIYSDGRRTFGGDSVK | GRAAGTFDS
4.92 | 1 of 3 | 3 of 9 | GFTLNSYLIS | VIYSDGRRTFYGDSVK | GRAGGTGDS
5.06 | 3 of 3 | 3 of 9 | GATLNIYGIS | VIYSDGRRTFYGDSVV | GRAAGTFDS
4.61 | 3 of 3 | 5 of 9 | GFTQNSYGIS | VIHSDGRRTFYGDSVK | GSAAGTFDS
4.26 | 2 of 3 | 2 of 9 | GFTPNSYGIS | VIYSDGRRTFYGDSVK | GRAACTFDS
4.87 | 2 of 3 | 1 of 9 | GFTLPSYGIS | VIYSDGRRTFYGDSVK | GRRAGDFDS
no signal | 0 of 3 | 0 of 9 | GFTLHSYGIS | VIYSDGRTTFYGDSVK | GFAAGTFDS
no signal | 0 of 3 | 0 of 9 | GFTLNSYGIS | VIYSDGRRTFYWDSVK | GRALGDFDS
no signal | 0 of 3 | 0 of 9 | GFTLNSYGIS | VIYQDGRRKFYGDSVK | GRAGGTFDS
4.53 | 1 of 3 | 3 of 9 | GFDLNSYGIS | VIYSDGRDTFYGDSVK | GIAAGTFDS
3.56 | 1 of 3 | 1 of 9 | GFTLNSYGIS | GIYSDGRRTFYGDSVK | GFAAGTFDS
3.93 | 1 of 3 | 0 of 9 | GFTLNSYGIF | VIYSDGRRTFYGDSVK | GRAAGDFDS
4.16 | 2 of 3 | 3 of 9 | GFLLNSYGIS | VIYSDGRNTFYGLSVK | GRAAGTFDS
no signal | 0 of 3 | 1 of 9 | SFTNNSYGIS | VIYSDGRPTFYGDSVK | GRAAGTFDS
2.11 | 3 of 3 | 1 of 9 | GFTFNQYGIS | VIYSDGRRTFYGPSVK | GRAAGTFDS

From the list, the first 9 with no signal in any replicate:

CDR-H1 | CDR-H2 | CDR-H3 | mean, log10 nM | replicates with signal | empty controls
GFTLNSMGIS | VIESDGRRTFYGDSVK | GRAAGTPDS | no signal | 0 of 3 | 1 of 9
GFTLNSYGIS | VIYSDGRGTFFGDSVK | GRAAGTFDS | no signal | 0 of 3 | 3 of 9
GFTLNSYWIS | VIYSDGRRTFYGDSRK | GRAADTFDS | no signal | 0 of 3 | 0 of 9
GFTLNSYGIS | VIYSDGNRTFYGDSVK | GRDAWTFDS | no signal | 0 of 3 | 0 of 9
GFTLNSYGIS | VIYTIIRRTFYGDSVK | GRAAGTFDS | no signal | 0 of 3 | 0 of 9
GFTLNSYGIG | VIYSDGRRTFYGMSVK | GRAAGEFDS | no signal | 0 of 3 | 0 of 9
GFTLNSYGIS | VIYSDGRRTFYGDFVK | GRAAGTNDH | no signal | 0 of 3 | 0 of 9
GFTLNSYGIS | VCYSDGRRTSTGDSVK | GRAAGTFDS | no signal | 0 of 3 | 0 of 9
GFTLNSYCIS | VIYSDGRRTFYGDSVK | WRAAGTFDS | no signal | 0 of 3 | 4 of 9

Source: Engelhart et al. 2022 (doi:10.1038/s41597-022-01779-4), MIT Lincoln Laboratory and A-Alpha Bio; data file from the FLAb repository.